From patent publication EP4831156A1, “SUBSTITUTED N-(4-TRIFLUOROMETHYL)-2-CYANOCROTONAMIDE COMPOUND, PREPARATION METHOD THEREFOR, AND PHARMACEUTICAL COMPOSITION AND USE THEREOF” (dated 2026) come the findings set out here.

Some results are limits rather than exact numbers.

One data set concerns LNCaP cells. Kind of data set: Anticancer activity, CellTiter-Glo Luminescent Cell Viability Assay. As to conditions: read-out: IC50 (µM) LNCaP; 72 h incubation. Background: In ATP-based viability assays light output follows the ATP content of the culture.
By IC50 is commonly meant the concentration that gives 50% inhibition. Consider `CCOC(=O)/C=C/C(=O)N/C(C)=C(\C#N)C(=O)Nc1ccc(C(F)(F)F)cc1`, for which the IC50 turned out to be 3.01 µM.

On to `C/C(NC(=O)CCCCCN1C(=O)C=CC1=O)=C(/C#N)C(=O)Nc1ccc(C(F)(F)F)cc1`, for which the IC50 is 0.37 µM.

Turning to `Cc1oncc1C(=O)Nc1ccc(C(F)(F)F)cc1`, the IC50 was determined as 5.43 µM.

For the molecule `C/C(NOCc1ccccc1)=C(/C#N)C(=O)Nc1ccc(C(F)(F)F)cc1`, the IC50 came to 2.93 µM.

With `CC1=CC(=O)N(CCCCCC(=O)N/C(C)=C(\C#N)C(=O)Nc2ccc(C(F)(F)F)cc2)C1=O`, the IC50 was 0.84 µM.

Turning to `C/C(NC(=O)CCN1C(=O)C=CC1=O)=C(/C#N)C(=O)Nc1ccc(C(F)(F)F)cc1`, the IC50 came out at 1.99 µM.

A further data set has as its system A549 cells. Described as above. Conditions: read-out: IC50 (µM) A549; 72 h incubation.
As to `CCOC(=O)/C=C/C(=O)N/C(C)=C(\C#N)C(=O)Nc1ccc(C(F)(F)F)cc1`, the IC50 is 4.96 µM.

`C/C(NC(=O)CCCCCN1C(=O)C=CC1=O)=C(/C#N)C(=O)Nc1ccc(C(F)(F)F)cc1`: the IC50 stood at 5.51 µM.

For `Cc1oncc1C(=O)Nc1ccc(C(F)(F)F)cc1`, the half-inhibitory concentration (IC50) came out at 7.86 µM.

With `C/C(NOCc1ccccc1)=C(/C#N)C(=O)Nc1ccc(C(F)(F)F)cc1`, the half-maximal inhibitory concentration (IC50) was 4.03 µM.

For `CC1=CC(=O)N(CCCCCC(=O)N/C(C)=C(\C#N)C(=O)Nc2ccc(C(F)(F)F)cc2)C1=O`, the concentration for half-maximal inhibition (IC50) came out at 2.66 µM.

In the case of `C/C(NC(=O)CCN1C(=O)C=CC1=O)=C(/C#N)C(=O)Nc1ccc(C(F)(F)F)cc1`, the IC50 was 5.02 µM.

The subject of the next data set is H460 cells. The data set is described as above. Conditions: read-out: IC50 (µM) H460; 72 h incubation.
Consider `CCOC(=O)/C=C/C(=O)N/C(C)=C(\C#N)C(=O)Nc1ccc(C(F)(F)F)cc1`, for which the IC50 is 1.07 µM.

Consider `C/C(NC(=O)CCCCCN1C(=O)C=CC1=O)=C(/C#N)C(=O)Nc1ccc(C(F)(F)F)cc1`, for which the IC50 turned out to be 1.17 µM.

For `Cc1oncc1C(=O)Nc1ccc(C(F)(F)F)cc1`, the half-maximal inhibitory concentration (IC50) was 5.43 µM.

In the case of `C/C(NOCc1ccccc1)=C(/C#N)C(=O)Nc1ccc(C(F)(F)F)cc1`, the IC50 was 1.59 µM.

In the case of `CC1=CC(=O)N(CCCCCC(=O)N/C(C)=C(\C#N)C(=O)Nc2ccc(C(F)(F)F)cc2)C1=O`, the concentration for half-maximal inhibition (IC50) turned out to be 1.12 µM.

Take `C/C(NC(=O)CCN1C(=O)C=CC1=O)=C(/C#N)C(=O)Nc1ccc(C(F)(F)F)cc1`: the IC50 was 1.23 µM.

The subject of a further data set is 786-O cells. The data set is described as above. Conditions: read-out: IC50 (µM) 786-O; 72 h incubation.
`CCOC(=O)/C=C/C(=O)N/C(C)=C(\C#N)C(=O)Nc1ccc(C(F)(F)F)cc1`: the half-inhibitory concentration (IC50) is 1.25 µM.

For the molecule `C/C(NC(=O)CCCCCN1C(=O)C=CC1=O)=C(/C#N)C(=O)Nc1ccc(C(F)(F)F)cc1`, the IC50 was 1.49 µM.

For the molecule `Cc1oncc1C(=O)Nc1ccc(C(F)(F)F)cc1`, the IC50 came out at 6.67 µM.

On to `C/C(NOCc1ccccc1)=C(/C#N)C(=O)Nc1ccc(C(F)(F)F)cc1`, for which the IC50 is 1.22 µM.

On to `CC1=CC(=O)N(CCCCCC(=O)N/C(C)=C(\C#N)C(=O)Nc2ccc(C(F)(F)F)cc2)C1=O`, for which the IC50 amounted to 1.99 µM.

With `C/C(NC(=O)CCN1C(=O)C=CC1=O)=C(/C#N)C(=O)Nc1ccc(C(F)(F)F)cc1`, the 50% inhibitory concentration (IC50) stood at 1.09 µM.

For another data set, the system named is PC3. The description is as above. As to conditions: read-out: IC50 (µM) PC3; 72 h incubation.
For `CCOC(=O)/C=C/C(=O)N/C(C)=C(\C#N)C(=O)Nc1ccc(C(F)(F)F)cc1`, the IC50 worked out at 4.61 µM.

On to `C/C(NC(=O)CCCCCN1C(=O)C=CC1=O)=C(/C#N)C(=O)Nc1ccc(C(F)(F)F)cc1`, for which the IC50 amounted to 2.57 µM.

In the case of `Cc1oncc1C(=O)Nc1ccc(C(F)(F)F)cc1`, the concentration for half-maximal inhibition (IC50) was determined as 9.16 µM.

As for `C/C(NOCc1ccccc1)=C(/C#N)C(=O)Nc1ccc(C(F)(F)F)cc1`, the IC50 amounted to 2.33 µM.

With `CC1=CC(=O)N(CCCCCC(=O)N/C(C)=C(\C#N)C(=O)Nc2ccc(C(F)(F)F)cc2)C1=O`, the IC50 was determined as 1.95 µM.

For the molecule `C/C(NC(=O)CCN1C(=O)C=CC1=O)=C(/C#N)C(=O)Nc1ccc(C(F)(F)F)cc1`, the 50% inhibitory concentration (IC50) worked out at 3.79 µM.

For the next data set, the system named is DU145 cells. Described as above. As to conditions: read-out: IC50 (µM) DU145; 72 h incubation.
With `CCOC(=O)/C=C/C(=O)N/C(C)=C(\C#N)C(=O)Nc1ccc(C(F)(F)F)cc1`, the IC50 worked out at 3.32 µM.

On to `C/C(NC(=O)CCCCCN1C(=O)C=CC1=O)=C(/C#N)C(=O)Nc1ccc(C(F)(F)F)cc1`, for which the 50% inhibitory concentration (IC50) is 2.58 µM.

In the case of `Cc1oncc1C(=O)Nc1ccc(C(F)(F)F)cc1`, the 50% inhibitory concentration (IC50) was determined as 4.65 µM.

For `C/C(NOCc1ccccc1)=C(/C#N)C(=O)Nc1ccc(C(F)(F)F)cc1`, the concentration for half-maximal inhibition (IC50) was 2.68 µM.

With `CC1=CC(=O)N(CCCCCC(=O)N/C(C)=C(\C#N)C(=O)Nc2ccc(C(F)(F)F)cc2)C1=O`, the IC50 stood at 2.64 µM.

Regarding `C/C(NC(=O)CCN1C(=O)C=CC1=O)=C(/C#N)C(=O)Nc1ccc(C(F)(F)F)cc1`, the 50% inhibitory concentration (IC50) was found to be 2.89 µM.

For another data set, the system named is Acetic Acid-induced Writhing Response in Mice. Put plainly: Acetic acid-induced writhing response in mice. Conditions: 40 mg/kg oral, 0.6% acetic acid i.p. 30 min after administration. On the technique in general: In writhing tests, fewer writhes than in controls are read as antinociception.
Turning to `C/C(=C(/C#N)C(=O)Nc1ccc(C(F)(F)F)cc1)N1CCOCC1`, the “Writhing inhibition rate (%)” value is reported as 70.1%.

On to `C/C(NP(=O)(O)O)=C(/C#N)C(=O)Nc1ccc(C(F)(F)F)cc1`, for which the “Writhing inhibition rate (%)” value is on record as 74.5%.

`C/C(NOCc1ccccc1)=C(/C#N)C(=O)Nc1ccc(C(F)(F)F)cc1`: the “Writhing inhibition rate (%)” value is recorded as 77.6%.

Staying with this data set, now noted: 40 mg/kg oral, 0.6% acetic acid i.p. 30 min after administration, x±s, n=8.
For `C/C(=C(/C#N)C(=O)Nc1ccc(C(F)(F)F)cc1)N1CCOCC1`, the Writhing times within 20 min was 10.3 ···.

For the molecule `C/C(NP(=O)(O)O)=C(/C#N)C(=O)Nc1ccc(C(F)(F)F)cc1`, the Writhing times within 20 min is 8.8 ···.

Take `C/C(NOCc1ccccc1)=C(/C#N)C(=O)Nc1ccc(C(F)(F)F)cc1`: the Writhing times within 20 min is 7.7 ···.

The subject of a further data set is Experimental Autoimmune Encephalomyelitis (EAE) Mice. Put plainly: Experimental autoimmune encephalomyelitis (EAE) mouse model: LFB staining, IL-17A and IFN-γ detection, neurological score. Conditions: 5 mg/kg for 14 consecutive days, compared with the Teriflunomide group, Fig. 2.
Turning to `C/C(=C(/C#N)C(=O)Nc1ccc(C(F)(F)F)cc1)N1CCOCC1`, the “demyelinated areas (LFB staining, spinal cord)” value is reported as “significantly smaller”.

For `COC(=O)[C@@H](N)COC(=O)N/C(C)=C(\C#N)C(=O)Nc1ccc(C(F)(F)F)cc1`, the “demyelinated areas (LFB staining, spinal cord)” value was “significantly smaller”.

Staying with this data set, now noted: 5 mg/kg for 14 consecutive days, compared with the model group, Fig. 2.
Regarding `C/C(=C(/C#N)C(=O)Nc1ccc(C(F)(F)F)cc1)N1CCOCC1`, the “lightly stained blue regions or unstained white regions in the spinal cord tissue (LFB staining)” value is reported as “significantly reduced”.

The same data set, now with this note: 5 mg/kg for 14 consecutive days, compared with the model group, Fig. 3.
Turning to `COC(=O)[C@@H](N)COC(=O)N/C(C)=C(\C#N)C(=O)Nc1ccc(C(F)(F)F)cc1`, the “IL-17A level in spinal” value is on record as “significantly decreased”.

Still in this data set, the particulars now being: 5 mg/kg for 14 consecutive days, compared with the model group, Fig. 4.
Consider `C/C(=C(/C#N)C(=O)Nc1ccc(C(F)(F)F)cc1)N1CCOCC1`, for which the “IFN-γ level in spinal” value is on record as “significantly reduced”.

For `COC(=O)[C@@H](N)COC(=O)N/C(C)=C(\C#N)C(=O)Nc1ccc(C(F)(F)F)cc1`, the “IFN-γ level in spinal” value is on record as “significantly reduced”.

On to `C/C(NP(=O)(O)O)=C(/C#N)C(=O)Nc1ccc(C(F)(F)F)cc1`, for which the “IFN-γ level in spinal” value was “significantly reduced”.

In the next data set the test system is ICR mice. Kind of data set: Tolerance study of test drugs in mice. As to conditions: 200 mg/kg intraperitoneally once daily for 4 consecutive days.
For `COC(=O)[C@@H](N)COC(=O)N/C(C)=C(\C#N)C(=O)Nc1ccc(C(F)(F)F)cc1`, the Clinical observation result is recorded as “No adverse reactions”.

In the case of `C/C(NP(=O)(O)O)=C(/C#N)C(=O)Nc1ccc(C(F)(F)F)cc1`, the Clinical observation result is recorded as “No adverse reactions”.

Still in this data set, the particulars now being: intraperitoneally once daily for 4 consecutive days.
In turn, `COC(=O)[C@@H](N)COC(=O)N/C(C)=C(\C#N)C(=O)Nc1ccc(C(F)(F)F)cc1` registered a Tolerance dose of over 200 mg/kg.

With `C/C(NP(=O)(O)O)=C(/C#N)C(=O)Nc1ccc(C(F)(F)F)cc1`, the Tolerance dose was over 200 mg/kg.
